Measurements as given in PubChem BioAssay AID2029 (NMMLSC, 2009).
The list shows a part of the results, in another mix than the full data. Some salts or complexes appear as unconnected parts, following the source record. Activity calls are given as the source filed them.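 How the source made its calls: active means GFP response relative to DMSO above a set limit, near the screen mean plus 3 SD (cut at about 150% in these data); inconclusive means Fewer than 70 cells measured for a yeast strain; inactive means the rest.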

Experiment: modulators of CIT2-GFP expression in yeast, primary screen, S. cerevisiae, GFP fusion, multiplex flow cytometry, MLPCN library (AID 2029);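 further: ratio of well median GFP fluorescence to mean of DMSO wells on the plate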
Settings: S. cerevisiae CIT2-GFP strain, 3 h, at 10 µM, active compounds read high, 100 means same as DMSO wells
In the case of `CCN(CC)CCCOC(=O)C(O)(c1ccccc1)c1ccccc1`, the GFP response vs DMSO is reported as inactive: 105%. With `O=[N+]([O-])c1cc([N+](=O)[O-])c(Nc2cccnc2)c([N+](=O)[O-])c1` the GFP response vs DMSO was inactive: 78.2%. With `CC(C)(C)c1ccc(OP(C)(=O)Nc2ccc(SC(F)(F)F)cc2)cc1` (stereo unspecified) the GFP response vs DMSO was inactive: 92.6%. With `Cc1cccc(C)c1OP(C)(N)=O` (stereo unspecified) the GFP response vs DMSO was inactive: 94.5%. For `O=[N+]([O-])c1ccc2c(c1)C=Nc1ccccc1O2`, the GFP response vs DMSO was inactive: 97.4%. With `CCOC(=O)c1ccc(NP(C)(=O)Oc2ccccc2)cc1` (stereo unspecified) the GFP response vs DMSO was inactive: 105%. For `COc1ccccc1OP(C)(=O)Nc1ccc(C)cc1` (stereo unspecified), the GFP response vs DMSO was inactive: 89%. For `Cc1ccc(NP(C)(=O)Oc2ccccc2)c(C)c1` (stereo unspecified), the GFP response vs DMSO was inactive: 92.7%. With `COc1ccccc1OP(C)(=O)Nc1cc(Cl)ccc1C` (stereo unspecified) the GFP response vs DMSO was inactive: 93.3%. With `COc1ccc(OP(C)(=O)Nc2cccc(F)c2)cc1` (stereo unspecified) the GFP response vs DMSO was inactive: 102%. With `Cc1cc(C)cc(OP(C)(N)=O)c1` (stereo unspecified) the GFP response vs DMSO was inactive: 96%. With `CP(=S)(Nn1cnnc1)Oc1ccccc1` (stereo unspecified) the GFP response vs DMSO was inactive: 94.1%. In the case of `COc1ccccc1OP(C)(=O)Nc1ccccc1` (stereo unspecified), the GFP response vs DMSO is reported as inactive: 98.3%. In the case of `CP(=O)(Nc1ccccc1Br)Oc1ccccc1` (stereo unspecified), the GFP response vs DMSO is reported as inactive: 93.6%. In the case of `Cc1cccc(C)c1OP(C)(=O)Nc1ccc(SC(F)(F)F)cc1` (stereo unspecified), the GFP response vs DMSO is reported as inactive: 93.9%. In the case of `CP(=O)(Nc1ccc(SC(F)(F)F)cc1)Oc1ccc(Cl)cc1` (stereo unspecified), the GFP response vs DMSO is reported as inactive: 96.5%. In the case of `CP(=O)(Oc1ccccc1)OC(c1ccccc1)C(F)(F)F` (stereo unspecified), the GFP response vs DMSO is reported as inactive: 99%. For `CCc1ccc(OP(C)(=O)N2CCN(c3ccc([N+](=O)[O-])cc3)CC2)cc1` (stereo unspecified), the GFP response vs DMSO was inactive: 87.7%. With `CP(=O)(NC(=O)Nc1ccccc1)Oc1ccccc1` (stereo unspecified) the GFP response vs DMSO was inactive: 94.7%. In the case of `Cc1cc(C)cc(OP(C)(=O)Nc2ccc(SC(F)(F)F)cc2)c1` (stereo unspecified), the GFP response vs DMSO is reported as inactive: 110%. For `CCOP(C)(=S)SCC(=O)NC(C)C(=O)O` (stereo unspecified), the GFP response vs DMSO was inactive: 107%. For `CCOC(=O)c1ccc(NP(C)(=O)Oc2ccc(OC)cc2)cc1` (stereo unspecified), the GFP response vs DMSO was inactive: 97.9%. In the case of `O=[N+]([O-])c1cc([N+](=O)[O-])c(O)c([N+](=O)[O-])c1.c1ccc(Oc2ccncc2)cc1`, the GFP response vs DMSO is reported as inactive: 101%. In the case of `CP(=O)(Nc1ccccn1)Oc1ccc(Cl)cc1` (stereo unspecified), the GFP response vs DMSO is reported as inactive: 95.1%. In the case of `O=[N+]([O-])c1cc([N+](=O)[O-])c(-n2nnc3ccccc32)c([N+](=O)[O-])c1`, the GFP response vs DMSO is reported as inactive: 98.3%. In the case of `O=[N+]([O-])c1cc([N+](=O)[O-])c(-c2cnn(-c3ccccc3)c2)c([N+](=O)[O-])c1`, the GFP response vs DMSO is reported as inactive: 86%. With `Cc1nc2ccc3ccccc3c2s1.O=[N+]([O-])c1cc([N+](=O)[O-])c(O)c([N+](=O)[O-])c1` the GFP response vs DMSO was inactive: 97%. For `O=[N+]([O-])c1cc([N+](=O)[O-])c(Nc2nnnn2CCO)c([N+](=O)[O-])c1`, the GFP response vs DMSO was inactive: 104%. In the case of `CC1=C2N=C(C=C3N=C(C(C)=C4[N-][C@@](C)([C@@H]5N=C1[C@](C)(CCC(=O)NC[C@@H](C)OP(=O)([O-])O[C@H]1[C@@H](O)[C@@H](n6cnc7cc(C)c(C)cc76)O[C@@H]1CO)[C@H]5CC(N)=O)[C@@](C)(CC(N)=O)[C@@H]4CCC(N)=O)[C@@](C)(CC(N)=O)[C@@H]3CCC(N)=O)C(C)(C)[C@@H]2CCC(N)=O.[C-]#N.[Co+3]`, the GFP response vs DMSO is reported as inactive: 76.6%. In the case of `CCOC(=O)C(CC)C1=NC(C)(C)Cc2ccccc21.O=[N+]([O-])c1cc([N+](=O)[O-])c(O)c([N+](=O)[O-])c1` (stereo unspecified), the GFP response vs DMSO is reported as inactive: 100%. For `COc1ccccc1OP(C)(=O)Nc1c(C)cccc1C` (stereo unspecified), the GFP response vs DMSO was inactive: 93%. For `CN1CCCCC1COC(=O)C1(O)c2ccccc2CCc2ccccc21` (stereo unspecified), the GFP response vs DMSO was inactive: 92.8%. For `CP(=O)(Nc1ccc(SC(F)(F)F)cc1)Oc1ccccc1` (stereo unspecified), the GFP response vs DMSO was inactive: 99.7%. For `O=C(O)c1cccc(Nc2c([N+](=O)[O-])cc([N+](=O)[O-])cc2[N+](=O)[O-])c1`, the GFP response vs DMSO was inactive: 106%. For `CC1=NCCc2c1[nH]c1ccccc21.O=[N+]([O-])c1cc([N+](=O)[O-])c(O)c([N+](=O)[O-])c1`, the GFP response vs DMSO was inactive: 93.6%. In the case of `COc1ccccc1OP(C)(=O)Nc1cccc(Br)c1` (stereo unspecified), the GFP response vs DMSO is reported as inactive: 114%. In the case of `Cc1cc(C)cc(OP(C)(=O)Nc2ccc(C)cc2C)c1` (stereo unspecified), the GFP response vs DMSO is reported as inactive: 96.4%. For `CCOC(=O)c1ccc(NP(C)(=O)Oc2cc(C)cc(C)c2)cc1` (stereo unspecified), the GFP response vs DMSO was inactive: 108%. With `CP(=O)(Nc1cccc(Br)c1)Oc1ccccc1` (stereo unspecified) the GFP response vs DMSO was inactive: 103%. With `Cc1cc(C)cc(OP(C)(=O)Nc2ccccn2)c1` (stereo unspecified) the GFP response vs DMSO was inactive: 99.2%. In the case of `Cc1ccc(C)c(NP(C)(=O)Oc2ccccc2)c1` (stereo unspecified), the GFP response vs DMSO is reported as inactive: 104%. In the case of `CC(C)c1ccc(OP(C)(=O)Nc2ccc(SC(F)(F)F)cc2)cc1` (stereo unspecified), the GFP response vs DMSO is reported as inactive: 100%. With `CP(=O)(Nc1ccccc1F)Oc1ccccc1` (stereo unspecified) the GFP response vs DMSO was inactive: 81.2%. In the case of `O=C(OCCN1CCN(CCOCc2ccccc2)CC1)C(O)(c1ccccc1)c1ccccc1`, the GFP response vs DMSO is reported as inactive: 100%. For `O=C(OC1CN2CCC1CC2)c1ccc([N+](=O)[O-])cc1` (stereo unspecified), the GFP response vs DMSO was inactive: 89.8%. In the case of `COc1ccc2c(c1O)-c1c(O)c(OC)cc3c1[C@H](C2)[N+](C)(C)CC3.O=[N+]([O-])c1cc([N+](=O)[O-])c([O-])c([N+](=O)[O-])c1[O-]`, the GFP response vs DMSO is reported as inactive: 119%. For `COc1ccc(OP(C)(=O)Nc2ccc(SC(F)(F)F)cc2)cc1` (stereo unspecified), the GFP response vs DMSO was inactive: 95.1%. For `CCOC(=O)c1ccc(NP(C)(=O)Oc2ccc(F)cc2)cc1` (stereo unspecified), the GFP response vs DMSO was inactive: 105%. For `CCN(CC)CCCOC(=O)C(O)(c1ccccc1)C1CCCCC1` (stereo unspecified), the GFP response vs DMSO was inactive: 103%. For `O=[N+]([O-])c1cc([N+](=O)[O-])c(OC2CCCCC2O)c([N+](=O)[O-])c1` (stereo unspecified), the GFP response vs DMSO was inactive: 106%. With `CCCCCOc1ccc(NP(C)(=O)Oc2ccc(Cl)cc2Cl)cc1` (stereo unspecified) the GFP response vs DMSO was inactive: 102%. For `CP(=O)(Nc1ccccc1)Oc1ccc(F)cc1` (stereo unspecified), the GFP response vs DMSO was inactive: 102%. For `COc1ccc(OP(C)(=O)Nc2cccc(Br)c2)cc1` (stereo unspecified), the GFP response vs DMSO was inactive: 104%. In the case of `COc1ccc(NP(C)(=O)Oc2ccccc2OC)cc1` (stereo unspecified), the GFP response vs DMSO is reported as inactive: 96.9%. In the case of `CN(C)CCOC(=O)C(O)(c1ccccc1)C1CCCCC1` (stereo unspecified), the GFP response vs DMSO is reported as inactive: 107%. In the case of `O=[N+]([O-])c1cc([N+](=O)[O-])c(NCC2CCS(=O)(=O)C2)c([N+](=O)[O-])c1` (stereo unspecified), the GFP response vs DMSO is reported as inactive: 103%.
